Laboratory results published in patent publication US20060128744A1, “Use of 5-HT6 agonist for the treatment and prevention of neurodegenerative disorders” (Wyeth, priority 2004, published 2006).

Legend:
[1] = tested on: neuron cultures from E16 rat embryos; conditions: 72 h, neurofilament ELISA
Description: In this evaluation neuron cultures are prepared from E16 rat embryos. […] After a 72 h period, neuronal survival is determined by a neurofilament ELISA.
The data are expressed as total neurofilament content.

[2] = tested on: cortical neuron cultures from E16 rat embryos; conditions: 72 h
Description: In this evaluation cortical neuron cultures are prepared from E16 rat embryos. […] Neurite outgrowth is determined after a 72 h period by staining cells with a tubulin antibody (TUJ-1) and measuring neurite length with the Cellomics ArrayScan, using the Enhanced Neurite Outgrowth (ENO) algorithm. The data are expressed as total neurite length.

In the case of CN(C)CCn1cc(S(=O)(=O)c2cccc(F)c2)c2cccnc21 [Test Compound B, N-(2-{3-[(3-fluorophenyl)sulfonyl]-1H-pyrrolo[2,3-b]pyridin-1-yl}ethyl)-N,N-dimethylamine], the “lowest concentration providing significant enhancement of survival” value [1] is reported as 10 nM and the “lowest concentration providing significant enhancement of total neurite length” value [2] is reported as 10 nM.
